Data taken from patent US6384208B1, “Sequence directed DNA binding molecules compositions and methods” (Genelabs Technologies, Inc., priority 1991, dated 2002).

Tested on: 256 different 4 bp sequences flanking the UL9 recognition site
Settings: 10 μM distamycin for 30 minutes

Distamycin A
Rank of test oligonucleotide (1 to 256, by average rank in 4 experiments) (test sequence AAAC): 18 | Rank of test oligonucleotide (1 to 256, by average rank in 4 experiments) (test sequence AAAG): 13 | Rank of test oligonucleotide (1 to 256, by average rank in 4 experiments) (test sequence AACC): 14 | Rank of test oligonucleotide (1 to 256, by average rank in 4 experiments) (test sequence AACG): 5 | Rank of test oligonucleotide (1 to 256, by average rank in 4 experiments) (test sequence AAGC): 74 | Rank of test oligonucleotide (1 to 256, by average rank in 4 experiments) (test sequence AAGG): 20 | Rank of test oligonucleotide (1 to 256, by average rank in 4 experiments) (test sequence AATC): 44 | Rank of test oligonucleotide (1 to 256, by average rank in 4 experiments) (test sequence ACAC): 48 | Rank of test oligonucleotide (1 to 256, by average rank in 4 experiments) (test sequence ACAG): 73 | Rank of test oligonucleotide (1 to 256, by average rank in 4 experiments) (test sequence ACCC): 26 | Rank of test oligonucleotide (1 to 256, by average rank in 4 experiments) (test sequence ACCG): 32 | Rank of test oligonucleotide (1 to 256, by average rank in 4 experiments) (test sequence ACGC): 25 | Rank of test oligonucleotide (1 to 256, by average rank in 4 experiments) (test sequence ACGG): 8 | Rank of test oligonucleotide (1 to 256, by average rank in 4 experiments) (test sequence AGAC): 17 | Rank of test oligonucleotide (1 to 256, by average rank in 4 experiments) (test sequence AGAG): 46 | Rank of test oligonucleotide (1 to 256, by average rank in 4 experiments) (test sequence AGCC): 22 | Rank of test oligonucleotide (1 to 256, by average rank in 4 experiments) (test sequence AGCG): 21 | Rank of test oligonucleotide (1 to 256, by average rank in 4 experiments) (test sequence AGGC): 30 | Rank of test oligonucleotide (1 to 256, by average rank in 4 experiments) (test sequence AGGG): 28 | Rank of test oligonucleotide (1 to 256, by average rank in 4 experiments) (test sequence AGTC): 35 | Rank of test oligonucleotide (1 to 256, by average rank in 4 experiments) (test sequence AGTG): 49 | Rank of test oligonucleotide (1 to 256, by average rank in 4 experiments) (test sequence ATCC): 19 | Rank of test oligonucleotide (1 to 256, by average rank in 4 experiments) (test sequence ATCG): 39 | Rank of test oligonucleotide (1 to 256, by average rank in 4 experiments) (test sequence CAAC): 16 | Rank of test oligonucleotide (1 to 256, by average rank in 4 experiments) (test sequence CGAA (complement of TTCG)): 216 | Rank of test oligonucleotide (1 to 256, by average rank in 4 experiments) (test sequence CGTT (complement of AACG)): 144 | Rank of test oligonucleotide (1 to 256, by average rank in 4 experiments) (test sequence CTCG): 38 | Rank of test oligonucleotide (1 to 256, by average rank in 4 experiments) (test sequence GAAA (complement of TTTC)): 235 | Rank of test oligonucleotide (1 to 256, by average rank in 4 experiments) (test sequence GATA (complement of TATC)): 213 | Rank of test oligonucleotide (1 to 256, by average rank in 4 experiments) (test sequence GGAA (complement of TTCC)): 42 | Rank of test oligonucleotide (1 to 256, by average rank in 4 experiments) (test sequence GGTA (complement of TACC)): 185 | Rank of test oligonucleotide (1 to 256, by average rank in 4 experiments) (test sequence GTAA (complement of TTAC)): 244 | Rank of test oligonucleotide (1 to 256, by average rank in 4 experiments) (test sequence TAAC): 12 | Rank of test oligonucleotide (1 to 256, by average rank in 4 experiments) (test sequence TAAG): 23 | Rank of test oligonucleotide (1 to 256, by average rank in 4 experiments) (test sequence TACC): 3 | Rank of test oligonucleotide (1 to 256, by average rank in 4 experiments) (test sequence TACG): 15 | Rank of test oligonucleotide (1 to 256, by average rank in 4 experiments) (test sequence TAGC): 9 | Rank of test oligonucleotide (1 to 256, by average rank in 4 experiments) (test sequence TAGG): 58 | Rank of test oligonucleotide (1 to 256, by average rank in 4 experiments) (test sequence TATC): 4 | Rank of test oligonucleotide (1 to 256, by average rank in 4 experiments) (test sequence TATG): 31 | Rank of test oligonucleotide (1 to 256, by average rank in 4 experiments) (test sequence TCAC): 52 | Rank of test oligonucleotide (1 to 256, by average rank in 4 experiments) (test sequence TCCC): 29 | Rank of test oligonucleotide (1 to 256, by average rank in 4 experiments) (test sequence TCGG): 34 | Rank of test oligonucleotide (1 to 256, by average rank in 4 experiments) (test sequence TTAA): 47 | Rank of test oligonucleotide (1 to 256, by average rank in 4 experiments) (test sequence TTAC): 2 | Rank of test oligonucleotide (1 to 256, by average rank in 4 experiments) (test sequence TTAG): 10 | Rank of test oligonucleotide (1 to 256, by average rank in 4 experiments) (test sequence TTCG): 6 | Rank of test oligonucleotide (1 to 256, by average rank in 4 experiments) (test sequence TTCT): 24 | Rank of test oligonucleotide (1 to 256, by average rank in 4 experiments) (test sequence TTGC): 37 | Rank of test oligonucleotide (1 to 256, by average rank in 4 experiments) (test sequence TTGG): 11 | Rank of test oligonucleotide (1 to 256, by average rank in 4 experiments) (test sequence TTTG): 43

Like-named read-outs stand apart in the source and are kept apart here.
